Source: US20100267697A1, “ION CHANNEL MODULATORS” (Wyeth, priority 2006, published 2010)

By UniProt entry, the sequences of proteins in these tests, tags left out. Where a name states a change or a piece, a line headed by the entry shows the natural chain unless it says otherwise. Residues count along the entry.
UniProt Q00975, whole entry: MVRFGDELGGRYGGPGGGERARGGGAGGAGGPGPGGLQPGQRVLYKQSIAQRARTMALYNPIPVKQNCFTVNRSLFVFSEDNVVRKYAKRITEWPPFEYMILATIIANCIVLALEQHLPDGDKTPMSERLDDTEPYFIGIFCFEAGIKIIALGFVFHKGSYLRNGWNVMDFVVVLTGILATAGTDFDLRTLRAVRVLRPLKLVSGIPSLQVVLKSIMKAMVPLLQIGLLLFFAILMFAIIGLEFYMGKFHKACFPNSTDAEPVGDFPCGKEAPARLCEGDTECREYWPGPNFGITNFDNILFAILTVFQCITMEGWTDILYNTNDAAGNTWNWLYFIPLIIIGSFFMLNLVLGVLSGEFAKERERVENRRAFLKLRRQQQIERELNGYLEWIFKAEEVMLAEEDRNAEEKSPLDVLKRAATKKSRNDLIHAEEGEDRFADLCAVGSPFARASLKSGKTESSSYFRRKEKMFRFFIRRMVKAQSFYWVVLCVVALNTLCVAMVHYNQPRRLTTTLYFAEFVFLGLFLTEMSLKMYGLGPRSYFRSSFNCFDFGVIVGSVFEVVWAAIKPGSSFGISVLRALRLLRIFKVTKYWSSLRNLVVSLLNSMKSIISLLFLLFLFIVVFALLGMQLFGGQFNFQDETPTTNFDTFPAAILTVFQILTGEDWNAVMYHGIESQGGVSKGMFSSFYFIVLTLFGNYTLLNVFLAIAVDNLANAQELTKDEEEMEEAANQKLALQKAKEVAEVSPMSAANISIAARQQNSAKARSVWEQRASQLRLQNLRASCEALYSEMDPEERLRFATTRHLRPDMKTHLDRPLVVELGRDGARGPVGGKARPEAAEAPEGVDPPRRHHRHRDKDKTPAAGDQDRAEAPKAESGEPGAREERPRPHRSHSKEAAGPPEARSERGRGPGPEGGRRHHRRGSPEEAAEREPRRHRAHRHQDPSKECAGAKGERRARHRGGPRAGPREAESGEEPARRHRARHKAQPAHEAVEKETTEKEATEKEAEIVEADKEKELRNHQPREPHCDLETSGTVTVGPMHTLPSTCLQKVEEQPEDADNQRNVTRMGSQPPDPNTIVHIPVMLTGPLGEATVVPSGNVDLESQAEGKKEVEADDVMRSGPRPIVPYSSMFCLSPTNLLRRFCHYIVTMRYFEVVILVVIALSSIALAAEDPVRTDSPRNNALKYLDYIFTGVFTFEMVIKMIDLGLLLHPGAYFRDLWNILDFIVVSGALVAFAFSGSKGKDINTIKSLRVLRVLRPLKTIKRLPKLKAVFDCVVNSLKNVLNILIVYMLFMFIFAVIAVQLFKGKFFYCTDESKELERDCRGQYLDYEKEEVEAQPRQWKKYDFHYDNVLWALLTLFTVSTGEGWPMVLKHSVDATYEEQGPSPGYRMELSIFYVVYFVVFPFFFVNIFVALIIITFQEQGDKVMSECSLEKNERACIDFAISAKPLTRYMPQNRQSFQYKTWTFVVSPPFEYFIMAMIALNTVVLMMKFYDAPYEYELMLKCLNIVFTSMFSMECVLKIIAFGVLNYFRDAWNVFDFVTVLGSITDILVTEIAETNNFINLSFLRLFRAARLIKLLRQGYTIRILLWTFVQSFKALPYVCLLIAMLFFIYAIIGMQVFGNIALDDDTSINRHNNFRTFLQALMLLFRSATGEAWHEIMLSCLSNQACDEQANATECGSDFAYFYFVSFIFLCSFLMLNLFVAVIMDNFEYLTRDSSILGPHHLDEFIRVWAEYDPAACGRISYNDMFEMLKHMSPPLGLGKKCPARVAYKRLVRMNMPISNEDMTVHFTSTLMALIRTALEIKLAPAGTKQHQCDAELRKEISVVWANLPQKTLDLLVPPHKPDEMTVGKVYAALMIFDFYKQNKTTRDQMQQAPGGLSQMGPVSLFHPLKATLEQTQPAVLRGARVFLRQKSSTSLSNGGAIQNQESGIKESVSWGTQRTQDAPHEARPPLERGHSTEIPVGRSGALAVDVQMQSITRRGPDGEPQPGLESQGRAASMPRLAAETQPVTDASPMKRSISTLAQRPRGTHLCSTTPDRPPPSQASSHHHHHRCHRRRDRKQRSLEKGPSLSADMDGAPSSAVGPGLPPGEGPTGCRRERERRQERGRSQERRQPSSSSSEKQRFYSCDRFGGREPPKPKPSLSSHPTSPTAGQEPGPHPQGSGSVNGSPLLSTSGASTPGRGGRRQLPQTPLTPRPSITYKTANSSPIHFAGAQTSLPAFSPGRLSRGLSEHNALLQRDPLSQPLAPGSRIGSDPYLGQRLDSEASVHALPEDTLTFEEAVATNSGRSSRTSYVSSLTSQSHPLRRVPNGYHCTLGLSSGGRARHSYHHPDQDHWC
UniProt P54289, 25-946 partner limits assumed: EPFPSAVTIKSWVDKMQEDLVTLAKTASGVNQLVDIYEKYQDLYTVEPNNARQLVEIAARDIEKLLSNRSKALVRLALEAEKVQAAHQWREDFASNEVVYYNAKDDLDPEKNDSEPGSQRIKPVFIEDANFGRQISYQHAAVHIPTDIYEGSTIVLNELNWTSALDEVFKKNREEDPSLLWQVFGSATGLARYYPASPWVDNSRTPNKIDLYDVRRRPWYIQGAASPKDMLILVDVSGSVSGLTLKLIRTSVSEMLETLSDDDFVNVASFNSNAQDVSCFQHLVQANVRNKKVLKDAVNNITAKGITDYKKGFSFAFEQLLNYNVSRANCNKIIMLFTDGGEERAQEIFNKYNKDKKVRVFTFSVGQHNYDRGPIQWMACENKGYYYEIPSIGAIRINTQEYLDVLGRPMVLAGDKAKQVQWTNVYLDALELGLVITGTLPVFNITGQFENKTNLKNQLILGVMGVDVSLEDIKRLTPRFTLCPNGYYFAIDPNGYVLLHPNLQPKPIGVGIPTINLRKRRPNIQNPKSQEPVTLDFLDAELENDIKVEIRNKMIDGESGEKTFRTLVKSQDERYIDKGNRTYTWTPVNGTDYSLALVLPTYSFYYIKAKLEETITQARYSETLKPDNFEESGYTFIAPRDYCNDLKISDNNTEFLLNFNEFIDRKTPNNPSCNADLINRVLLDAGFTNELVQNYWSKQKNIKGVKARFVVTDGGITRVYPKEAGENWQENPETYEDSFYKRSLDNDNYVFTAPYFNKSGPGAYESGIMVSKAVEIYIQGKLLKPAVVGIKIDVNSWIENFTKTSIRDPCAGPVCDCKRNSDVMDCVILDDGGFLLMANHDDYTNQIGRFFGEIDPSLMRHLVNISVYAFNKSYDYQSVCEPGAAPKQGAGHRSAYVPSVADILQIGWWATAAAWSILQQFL
UniProt P54289, 947-1103 partner limits assumed: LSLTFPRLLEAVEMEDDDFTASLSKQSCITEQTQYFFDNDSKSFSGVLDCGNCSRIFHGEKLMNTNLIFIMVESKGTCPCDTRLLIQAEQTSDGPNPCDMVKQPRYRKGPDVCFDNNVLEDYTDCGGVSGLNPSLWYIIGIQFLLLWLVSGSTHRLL
UniProt P54284, whole entry partner: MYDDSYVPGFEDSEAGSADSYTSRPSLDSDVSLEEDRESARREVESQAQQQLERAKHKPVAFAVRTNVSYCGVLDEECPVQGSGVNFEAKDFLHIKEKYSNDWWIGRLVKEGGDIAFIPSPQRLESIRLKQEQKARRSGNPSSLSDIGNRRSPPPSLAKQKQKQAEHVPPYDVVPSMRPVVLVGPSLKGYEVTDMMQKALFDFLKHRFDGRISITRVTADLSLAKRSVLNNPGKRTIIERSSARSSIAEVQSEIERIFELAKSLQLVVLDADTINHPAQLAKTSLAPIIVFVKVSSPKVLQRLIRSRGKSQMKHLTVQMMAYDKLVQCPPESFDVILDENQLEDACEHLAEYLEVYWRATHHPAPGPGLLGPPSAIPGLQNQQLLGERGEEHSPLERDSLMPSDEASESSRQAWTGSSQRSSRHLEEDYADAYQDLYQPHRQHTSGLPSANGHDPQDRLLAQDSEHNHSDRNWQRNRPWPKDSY

Biological target: human Cav2.2 (composed of the subunits α1, β3 and α2δ) (Homo sapiens, UniProt Q00975)
Experiment: FLIPR assay (TSA201 cells stably transfected with human Cav2.2 and human Kir2.3, FLUO-4 Ca2+ signal, KCl depolarization)
Conditions: read-out: FLIPR Cav2.2 IC50, 70 mM KCl depolarization, average value, tested form: HCl

CC(C)(C)C(=O)N(Cc1csc(N2CCC3CCCCC3C2)n1)c1ccc(F)cc1 (stereo not shown) was tested, and the IC50 was 2.7 µM.
